The term EC50 denotes the midpoint of the concentration-response curve. Higher therefore signals weaker potency.

Our source for the EC50 values is patent publication US20040018487A1.

For the test, the target named is HPV 16 E6 C-terminal PL peptide (TQL), biotinylated (HPV 16). The test is described as follows: G assay, HPV16 E6 PL peptide titrated against a constant amount of GST-PDZ.

For the substance “GST-PSD95 PDZ domains 1-3 (from UniProt P78352 61-402)”, the EC50 amounted to 1000 nM.
